Measured values published in patent US20110117026A1, “METHODS AND COMPOSITIONS FOR THE DELIVERY OF BIOACTIVE COMPOUNDS” (priority 2008, published 2011).

Target: T1, recombinant caspase 3 (Homo sapiens, UniProt P42574)
T1 sequence (P42574 29-175 limits assumed): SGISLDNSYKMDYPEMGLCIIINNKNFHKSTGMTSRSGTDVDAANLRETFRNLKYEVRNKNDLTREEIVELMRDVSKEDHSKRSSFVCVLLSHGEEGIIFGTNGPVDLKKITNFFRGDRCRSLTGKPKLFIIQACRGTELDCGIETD
T1 sequence (P42574 176-277 limits assumed): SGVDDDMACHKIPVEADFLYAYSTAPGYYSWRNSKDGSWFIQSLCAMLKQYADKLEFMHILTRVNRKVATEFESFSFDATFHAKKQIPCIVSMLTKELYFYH
Experiment: Cleavage of imaging peptide by caspase 3 (Cy5.5/Cy7 FRET, nanofluorometer)
Assay type: biochemical
Settings: caspase-3 pre-incubated with 10 μM inhibitor for one hour
Procedure: FIG. 27A-27D show the emission spectra of the imaging peptide. The fluorescence emission profiles of untreated peptide (FIG. 27A), peptide treated with 60 units of caspase-3 for 2 hours (FIG. 27B), peptide treated with 0.1 mg BSA (FIG. 27C), and peptide treated with 60 units caspase-3 that was pre-incubated with 10 μM caspase-3 inhibitor for one hour (FIG. 27D) were measured with a nanofluorometer.
In these studies, an imaging reporter system was developed which will allow the detection of apoptotic cells in a targeted tumor in situ upon administration of a cytotoxic agent. A peptide comprising an anionic tetrapeptide DEVD motif (SEQ ID NO: 5), which contains the sequence recognized by the activated caspase 3 (Nicholson et al. (1995) Nature 376(6535):37-43) was used for this purpose. The imaging peptide Ac-KDEVDCDEVDKDEVDC (SEQ ID NO: 6) contains three tetrapeptide repeats (underlined) to increase the amount of negative charges in the peptide for improved entrapment during the self-assembly of LPH nanoparticles. N-terminal acetylation further decreases the positive charge content of the peptide. […] The latter property is important for the fluorescence resonance energy transfer (FRET) that occurs when the two probes are in close proximity to each other. […] The fluorescence spectrum of the peptide was recorded with a nanofluorometer which only requires a 2 μL sample volume. […]

Substance: DEVD-CHO [reference compound]
- block of caspase 3 induced increase in Cy5.5/Cy7 ratio: blocked
